{"sequences": {"note": "By UniProt entry, the sequences of proteins in these tests, tags left out. Where a name states a change or a piece, a line headed by the entry shows the natural chain unless it says otherwise.", "UniProt P42338": "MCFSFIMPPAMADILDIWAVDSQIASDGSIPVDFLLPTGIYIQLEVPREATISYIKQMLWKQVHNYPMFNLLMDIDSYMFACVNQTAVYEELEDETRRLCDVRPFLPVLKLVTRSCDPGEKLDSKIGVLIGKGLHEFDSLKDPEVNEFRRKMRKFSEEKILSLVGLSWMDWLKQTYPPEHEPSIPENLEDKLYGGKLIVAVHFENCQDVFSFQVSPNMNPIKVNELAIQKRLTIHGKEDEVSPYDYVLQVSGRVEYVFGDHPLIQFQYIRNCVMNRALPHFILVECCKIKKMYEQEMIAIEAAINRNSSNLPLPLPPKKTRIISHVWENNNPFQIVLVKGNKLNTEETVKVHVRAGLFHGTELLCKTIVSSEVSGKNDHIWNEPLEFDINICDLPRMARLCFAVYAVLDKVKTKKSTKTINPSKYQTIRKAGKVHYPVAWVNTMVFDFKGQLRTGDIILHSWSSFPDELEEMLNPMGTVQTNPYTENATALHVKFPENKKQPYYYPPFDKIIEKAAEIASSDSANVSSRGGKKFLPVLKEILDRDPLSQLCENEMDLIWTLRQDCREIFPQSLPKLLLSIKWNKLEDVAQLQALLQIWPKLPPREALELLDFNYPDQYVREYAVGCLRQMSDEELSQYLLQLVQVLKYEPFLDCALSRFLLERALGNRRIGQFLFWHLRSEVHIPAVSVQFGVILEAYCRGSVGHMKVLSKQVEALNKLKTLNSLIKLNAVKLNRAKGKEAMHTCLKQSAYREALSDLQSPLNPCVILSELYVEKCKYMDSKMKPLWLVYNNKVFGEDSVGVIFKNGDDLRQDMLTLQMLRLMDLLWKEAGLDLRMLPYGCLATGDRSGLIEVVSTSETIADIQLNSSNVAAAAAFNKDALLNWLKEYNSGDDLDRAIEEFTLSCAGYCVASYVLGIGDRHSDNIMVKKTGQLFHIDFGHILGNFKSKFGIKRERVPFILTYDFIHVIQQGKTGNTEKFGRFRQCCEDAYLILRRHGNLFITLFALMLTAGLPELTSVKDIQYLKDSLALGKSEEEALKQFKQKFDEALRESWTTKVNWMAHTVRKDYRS"}, "source": "patent US8895549B2", "about": "“Aminoalcohol substituted 2,3-dihydroimidazo[1,2-c]quinazoline derivatives useful for treating hyper-proliferative disorders and diseases associated with angiogenesis” (Bayer Intellectual Property GmbH, priority 2010, dated 2014)"}
{"biological_target": "PI3Kβ (complex of human p110β and human p85α) (Homo sapiens (Human), UniProt P42338)", "assay": "PI3Kβ kinase assay (HTRF-based PI3K inhibition assay)", "details": "10 μM ATP, 10 μM PIP2, 20 min at 22° C.; read-out: average IC50 in the PI3K beta biochemical assay", "description": "Determination of % Inhibition and IC50 Values of Compounds in PI3Kα Kinase Assay\nPI3Kα inhibitory activity of compounds of the present invention was quantified employing the HTRF based PI3K inhibition assay as described below.\nAs reagents for the kinase reaction itself and the quantification of the reaction product, the PI3-Kinase HTRF Assay kit from Millipore (#33-017) was used. With this kit the phosphatidylinositol 3,4,5-trisphosphate (PIP3) generated in the kinase reaction is detected by displacement of a biotinylated ligand from an energy transfer complex consisting of a Europium-labeled anti-GST monoclonal antibody, a GST-tagged PH domain, biotinylated PIP3 and Streptavidin-Allophycocyanin (APC). As kinase a complex of N-terminal His6-tagged recombinant full-length human p110β and untagged, recombinant, full length, human p85α, coexpressed by baculovirus infected Sf21 insect cells and purified using Ni^2+/NTA-agarose, was used (Millipore product #14-603). […]\nThe reaction was stopped by the addition of 1 μL of an stop solution (containing the biotinylated PIP3 used as a tracer). […] Subsequently the amount of energy transfer complex consisting of a Europium-labeled anti-GST monoclonal antibody, a GST-tagged PH domain, biotinylated PIP3 and Streptavidin-Allophycocyanin (APC) was evaluated by measurement of the resonance energy transfer from the Europium-labeled anti-GST monoclonal antibody to the Streptavidin-Allophycocyanin. Therefore, the fluorescence emissions at 620 nm and 665 nm after excitation at 350 nm were measured using a TR-FRET reader, e.g., a Pherastar (BMG Labtechnologies, Offenburg, Germany) or a Viewlux (Perkin-Elmer). […]", "units": {"IC50": "nM"}}
{"smiles": "COc1c(OCC(O)CN2CCOCC2)ccc2c1N=C(NC(=O)c1cccnc1)N1CCN=C21", "note": "(stereo not drawn) [Comparative Example 1, N-{8-[2-hydroxy-3-(morpholin-4-yl)propoxy]-7-methoxy-2,3-dihydroimidazo[1,2-c]quinazolin-5-yl}pyridine-3-carboxamide, reference compound]", "IC50": "> 50"}
{"smiles": "COc1c(OC[C@H](O)CN2CCOCC2)ccc2c1N=C(NC(=O)c1cccnc1)N1CCN=C21", "note": "[Example 2, N-(8-{[(2R)-2-hydroxy-3-(morpholin-4-yl)propyl]oxy}-7-methoxy-2,3-dihydroimidazo[1,2-c]quinazolin-5-yl)pyridine-3-carboxamide]", "IC50": "10 to 50"}
{"smiles": "COc1c(OC[C@@H](O)CN2CCOCC2)ccc2c1N=C(NC(=O)c1cccnc1)N1CCN=C21", "note": "[Example 3, N-(8-{[(2S)-2-hydroxy-3-(morpholin-4-yl)propyl]oxy}-7-methoxy-2,3-dihydroimidazo[1,2-c]quinazolin-5-yl)pyridine-3-carboxamide]", "IC50": "> 50"}
